{"source": "patent US6777578B2", "about": "“Hydroxyphenstatin and the prodrugs thereof” (Arizona Board of Regents, priority 2000, dated 2004)", "assay": "Solubility in distilled water", "format": "physicochemical", "details": "distilled water at 25° C."}
{"substance": "Potassium Hydroxyphenstatin Diphosphate [Compound 6g]", "values": [{"measurement": "solubility", "result": "> 100", "unit": "mg/mL"}]}
